This note sets out measurements from PubChem BioAssay AID2205 (University of Pittsburgh Molecular Library Screening Center, 2009).

The list shows a part of the results, in another mix than the full data. Activity calls are given as the source filed them.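 The calls were made as follows: active = plate Z-score above 3 for both tubulin-high and condensed-nucleus cell shares, with cell loss under 80%, at 10 µM; inactive = the rest, inconclusive results apart.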

The nature of the assay: tubulin staining increase by stabilizing compounds – imaging, high-content imaging, primary screen (AID 2205). Particulars: HeLa tubulin immunostaining HCS, 24 h; at 10 µM; active compounds read high; share of cells brighter than vehicle mean+2SD.
Regarding `N/C(=N\O)c1c(N)no[n+]1[O-]`, the % tubulin-high responders was inactive: 5.1%.

For `O=C(OC1CN2CCC1CC2)C1c2ccccc2C=Cc2ccccc21` (stereo not given), the % tubulin-high responders is inactive: 4.18%.

As to `COc1ccc(C(=O)NCC2(N3CCOCC3)CCCCC2)cc1OC`, the % tubulin-high responders was inactive: 1.45%.

On to `c1ccc(CN2CCC(Nc3ccccc3)CC2)cc1`, for which the % tubulin-high responders is inactive: 3.27%.

Turning to `N#Cc1ccc(C(=O)NCC2(N3CCCCC3)CCCCC2)cc1`, the % tubulin-high responders was inactive: 1.41%.

In the case of `CCN1CCC(Nc2cccc(F)c2)CC1`, the % tubulin-high responders was inactive: 1.78%.

For the compound `CN(C)c1ccc(C(=O)NCC2(N3CCCCC3)CCCCC2)cc1`, the % tubulin-high responders is inactive: 2.21%.

As to `CCC(CO)(C(=O)OC1CN2CCC1CC2)c1ccccc1` (stereo not given), the % tubulin-high responders was inactive: 6.24%.

`COc1cc(OC)cc(C(=O)NCC2(N3CCOCC3)CCCCC2)c1`: the % tubulin-high responders is inactive: 3.76%.

Turning to `CCOc1ncccc1C(=O)NCC1(N2CCOCC2)CCCCC1`, the % tubulin-high responders is inactive: 3.73%.

On to `CC(C)(C)OC(=O)N1CCC(Nc2ccccc2)CC1`, for which the % tubulin-high responders was inactive: 5.5%.

In the case of `O=C(NCC1(N2CCOCC2)CCCCC1)c1cc2ccccc2o1`, the % tubulin-high responders was inactive: 3.32%.

In the case of `CCOC(=O)N1CCC(Nc2ccc(OC)cc2)CC1`, the % tubulin-high responders is inactive: 4.83%.

With `O=C(OC1CN2CCC1CC2)C1c2ccccc2Oc2ccccc21` (stereo not given), the % tubulin-high responders is inactive: 6.64%.

In the case of `COc1ccc(C(=O)NCC2(N3CCCCC3)CCCCC2)c(OC)c1OC`, the % tubulin-high responders was inactive: 1.09%.

Consider `COc1ccc(NC2CCN(CCc3ccccc3)CC2)c(OC)c1`, for which the % tubulin-high responders was inactive: 3.2%.

Turning to `COc1ccc(NC2CCN(C(=O)OC(C)(C)C)CC2)cc1`, the % tubulin-high responders was inactive: 1.94%.

Consider `CN1CCN(CCOC(=O)C(O)(c2ccccc2)c2ccccc2)CC1`, for which the % tubulin-high responders is inactive: 2.39%.

For the compound `O=C(NCC1(N2CCOCC2)CCCCC1)c1cc(=O)[nH]c2ccccc12`, the % tubulin-high responders is inactive: 2.47%.

In the case of `O=C(NCC1(N2CCCCC2)CCCCC1)c1cccc([N+](=O)[O-])c1`, the % tubulin-high responders was inactive: 1.62%.

Regarding `N#CC1(Nc2ccccc2)CCN(CCc2ccccc2)CC1`, the % tubulin-high responders is inactive: 2.69%.

Regarding `CN1CCC(Nc2cccc(F)c2)CC1`, the % tubulin-high responders is inactive: 1.19%.

`CN(C)c1cccc(C(=O)NCC2(N3CCCCC3)CCCCC2)c1`: the % tubulin-high responders was inactive: 2.97%.

Regarding `COc1ccc(CN(CCCl)CCCl)cc1Cl`, the % tubulin-high responders is inactive: 3.31%.

Turning to `CC(C)c1ccc(NC2CCN(C(=O)OC(C)(C)C)CC2)cc1`, the % tubulin-high responders is inactive: 1.82%.
